Reference: patent US9808528B2, “Protein-polymer-drug conjugates and methods of using same” (priority 2014, dated 2017)

Key:
BT474 tumor fragments = test: Tumor growth response, BT474 xenograft; format: in vivo, mice; conditions: single IV dose day 1; conjugates […] and 5 mg/kg; trastuzumab 10 mg/kg
From the text: (§1) Mice were sacrificed when tumors reached a size of 800 to 1500 mm^3.

JIMT-1 cells = test: Tumor growth response, JIMT-1 xenograft; format: in vivo, mice; conditions: single IV dose day 1; for tumor volume response (in words), FIG. 2: conjugates […], trastuzumab 10 mg/kg, Kadcyla 10 mg/kg
From the text: as §1

NCI-H1581 = test: Cytotoxicity assay (CellTiter-Glo); format: cell-based; conditions: HER2 molecules per cell 13,000; Her2 expression 1+; 72 hours or 6 days
[1] = Mouse plasma PK (Example 27, Table IX); conditions: total AF-HPA by LC-MS/MS; single IV dose, CD-1 mice
[2] = SDS-PAGE of the conjugate under non-reducing and reducing conditions; format: physicochemical

Substance	tumor volume response (in words), FIG. 1 (BT474 tumor fragments)	tumor volume response (in words), FIG. 4A (JIMT-1 cells; Example 14 at 2, 0.67 and 0.3 mg/kg, trastuzumab 20 mg/kg, Kadcyla 20 mg/kg)	tumor volume response (in words), FIG. 2 (JIMT-1 cells)	IC50 (NCI-H1581)	Plasma PK AUC0 to 336 [1]	behaviour on SDS-PAGE under reducing conditions [2]
Trastuzumab [reference compound]	increase of tumor volume	increase of tumor volume	increase of tumor volume	–	–	–
Trastuzumab-((EG2-MI (2%)-(10 kDa PHF-BA (30%)-(AF-HPA-Ala (9%)) [Example 7]	–	–	reduction of tumor volume	2.3 nM	22900 ng·h/mL	–
Trastuzumab-((EG2-MI (3%))-(10 kDa PHF-BA (30%)-(AF-HPA-Ala (8%)) [Example 4]	reduction of tumor volume	–	reduction of tumor volume	–	20100 ng·h/mL	dissociated in to heavy and light chain fragments
